Test results from doi:10.1101/2020.11.09.375162v1 (biorxiv, 2020).
Where two headings read alike, the source gives them in different places.

Sequences of proteins named here, by UniProt entry; tags and fusion partners are left off.
UniProt P34972, whole entry: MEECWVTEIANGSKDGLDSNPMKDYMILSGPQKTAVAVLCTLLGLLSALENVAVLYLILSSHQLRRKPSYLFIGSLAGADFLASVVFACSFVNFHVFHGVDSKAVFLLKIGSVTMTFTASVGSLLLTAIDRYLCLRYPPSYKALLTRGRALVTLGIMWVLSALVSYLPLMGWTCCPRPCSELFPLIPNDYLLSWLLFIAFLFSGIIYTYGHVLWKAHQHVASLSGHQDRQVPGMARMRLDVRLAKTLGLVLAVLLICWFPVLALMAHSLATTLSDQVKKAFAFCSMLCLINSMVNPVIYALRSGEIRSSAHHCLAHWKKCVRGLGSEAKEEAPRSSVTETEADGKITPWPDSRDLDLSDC

Experiments:
Test in all cases: cell-based
[1] = target: T1, human CB2 receptor (hCB2) (Homo sapiens, UniProt P34972)
[2] = target: T1, human CB2 receptor (hCB2); remark: listed apart in the source
[3] = target: T1, human CB2 receptor (hCB2); remark: listed apart in the source
[4] = target: T1, human CB2 receptor (hCB2); remark: listed apart in the source
[5] = target: T1, human CB2 receptor (hCB2); remark: listed apart in the source

CCCCCCC(C)(C)c1cc(OC)c([C@@H]2C=C(CO)[C@@H]3C[C@H]2C3(C)C)c(OC)c1 [HU308]
EC50 [1]: 24.4 nM | EC50 [2]: 16.1 nM | EC50 [3]: 32.4 nM | EC50 [4]: 6.81 nM | EC50 [5]: 9.82 nM
